Laboratory results: patent US5132429A, “Benzotriazole derivatives and fluorescence-emitting reagents thereof” (priority 1988, dated 1992)

Molecular target: α1-AG (α1-acid glycoprotein)
Test: Binding constant of basic drug to α1-AG by displacement of compound 1 (fluorescence probe method, Klotz formula)
Details: 3×10^-6 M α1-AG
Procedure: Two different kinds of solutions, one containing α1 -AG and a compound of this invention listed above, the other containing α1 -AG, the compound of this invention, and a drug, are prepared to measure fluorescence intensity at the excitation. fluorescence wavelength, as shown in Table 2. According to the working curve made beforehand, the binding rate of the compound to α1 -AG in each solution is determined and the binding constant of a drug to α1-AG is calculated from the difference between the binding rates in the presence and the absence of a drug.
In the fluorescence cell made of quartz with a plug was placed the buffer solution of 0.1M phosphoric acid (2 ml) which pH is 7.4 and containig 1×10^-4 M α1 -AG, to which 5×10^-4 M aqueous solution of the compound 1 was added by 2 μl each with a microcylinder, which was prepared by dissolving about 3 mg of the compound 1 in 1N hydrochloric acid (1 ml), followed by diluting with water to make the total volume 200 times, and the resulting solution was mixed fully to determine fluorescence intensity at 508 nm (excitation wavelength: 418 nm).
For the buffer solution of 0.1M phosphoric acid (2 ml) which pH is 7.4 and containing 3×10^-6 M α1 -AG, the same procedure as in Example 1 was performed.
As for the other basic drugs shown in Table 3, binding constant were obtained according to the same manner as in Example 11.

CN(C)CCCN1c2ccccc2Sc2ccc(Cl)cc21 [Chloropromazine]
log Kb (binding constant) (0.1M phosphoric acid buffer pH 7.4, compound 1 as probe): 6.46 | inhibition of the binding of the compound 1 to α1-AG (1×10^-6 M chloropromazine, pH 7.4): inhibited
